According to PubChem BioAssay AID522 (The Scripps Research Institute Molecular Screening Center, 2006):
The entries are a selection whose mix differs from that of the whole data set. The source made the active and inactive calls.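 The calls were made as follows: active = activation above the mean activation of all tested compounds plus 3 SD (cut at about 50% in these data); inactive = the rest.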

Amino acid sequences for entries named in this document (tags omitted).
UniProt Q13285, whole entry: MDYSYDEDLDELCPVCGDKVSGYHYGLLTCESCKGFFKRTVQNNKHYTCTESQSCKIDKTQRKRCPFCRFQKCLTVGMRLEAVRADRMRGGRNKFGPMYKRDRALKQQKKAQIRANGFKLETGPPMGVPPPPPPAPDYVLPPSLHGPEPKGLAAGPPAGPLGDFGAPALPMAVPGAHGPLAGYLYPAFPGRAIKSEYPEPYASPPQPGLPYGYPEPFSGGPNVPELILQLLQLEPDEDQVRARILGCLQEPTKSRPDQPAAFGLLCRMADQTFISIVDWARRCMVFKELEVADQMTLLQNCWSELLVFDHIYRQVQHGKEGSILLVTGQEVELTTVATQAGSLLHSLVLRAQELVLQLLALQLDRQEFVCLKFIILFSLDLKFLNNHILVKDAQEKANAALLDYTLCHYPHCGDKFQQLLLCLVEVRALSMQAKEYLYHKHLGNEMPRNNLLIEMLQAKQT

biological target: Steroidogenic factor 1 (Homo sapiens) (UniProt Q13285); test: SF-1 ligand-binding domain transactivation enhancers – cell-based, CHO-K1, Gal4-SF-1 LBD, luciferase luminescence, primary screen (AID 522); details: CHO-K1 Gal4-SF-1 LBD luciferase reporter; at 10 µM; active compounds read high; % increase over DMSO SF-1-specific signal
Procedure, shortened: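 Test system: CHO-K1 cells co-transfected with Gal4 DBD–human SF-1 LBD, 5xGal4 luciferase reporter. Quantity: 4,000 cells per well. Compound: 10 µM only. Incubation: compound added 1 h post-seeding, 20 h exposure at 37 °C, 5% CO2. Detection: SteadyLite luciferase luminescence. Replication: one test per compound.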

Q: Which activation does the source give for `O=C(OC1CN2CCC1CC2)C1c2ccccc2Oc2ccccc21` (configuration not stated) here?
A: inactive: 13.6%

Q: For `COc1ccc(NC2CCN(CCc3ccccc3)CC2)c(OC)c1`, which activation is on record?
A: inactive: -13.4%

Q: For `N#CC1(Nc2ccccc2)CCN(CCc2ccccc2)CC1`, which activation is on record?
A: inactive: -12.6%

Q: `N/C(=N\O)c1c(N)no[n+]1[O-]` was tested. Which activation did it give?
A: inactive: 2.4%

Q: With `Fc1ccccc1NC1CCN(Cc2ccccc2)CC1` as the molecule, how does the activation read?
A: inactive: -11.3%

Q: Which activation does the source give for `CCC(CO)(C(=O)OC1CN2CCC1CC2)c1ccccc1` (configuration not stated) here?
A: inactive: 10.4%

Q: Which activation does the source give for `CCOc1ncccc1C(=O)NCC1(N2CCOCC2)CCCCC1` here?
A: inactive: 4.3%
